Data as given in article PMC5830615 (Scientific Reports, 2018).

By UniProt entry, the sequences of proteins in these tests, tags left out.
UniProt P49146, whole entry: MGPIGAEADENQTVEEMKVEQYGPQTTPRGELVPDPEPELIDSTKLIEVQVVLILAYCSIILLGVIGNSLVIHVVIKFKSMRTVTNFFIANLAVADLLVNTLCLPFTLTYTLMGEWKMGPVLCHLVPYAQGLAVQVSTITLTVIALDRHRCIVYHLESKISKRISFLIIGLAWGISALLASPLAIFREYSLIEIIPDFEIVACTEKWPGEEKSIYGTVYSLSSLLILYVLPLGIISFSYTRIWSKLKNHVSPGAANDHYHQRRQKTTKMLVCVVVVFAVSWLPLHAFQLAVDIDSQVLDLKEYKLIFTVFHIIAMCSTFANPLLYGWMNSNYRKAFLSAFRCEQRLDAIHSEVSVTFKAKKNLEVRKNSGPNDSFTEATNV

Legend:
human NPY2R [1] = target: T1, human NPY2R (Homo sapiens, UniProt P49146); assay: FRET assay, inhibition of forskolin-stimulated cAMP production in HEK293-H188-C24 cells transfected with human NPY2R; assay type: cell-based; conditions: forskolin 2 μM + IBMX 100 μM; PYY(1–36) at 3,000 nM
T1 construct: 3xHA (own knowledge: 'TN' in the cDNA Resource Center clone ID denotes an N-terminal 3xHA tag); host or cells: HEK293-H188-C24 (transient transfection, pcDNA3.1)
Description: Transient transfections were performed using Lipofectamine and Plus Reagent (Thermo Fisher) using methodology described previously by our laboratory for HEK293 cells. […] Plasmid encoding human NPY2R (I.D. NPYR20TN00) in pcDNA3.1 was from the University of Missouri-Rolla cDNA Resource Center (Rolla, MO). Individual clones of HEK293 cells stably expressing select FRET reporters were obtained by G418 antibiotic resistance selection, as described previously. Adenovirus for transduction of HEK293 cells with H188 was generated by a commercial vendor (ViraQuest, North Liberty, IA) using the shuttle vector pVQAd CMV K-NpA and the H188 plasmid originally created by Klarenbeek and co-workers[30].
HEK293-H188-C24 cells stably expressing H188 were plated at 80% confluence on 96-well clear-bottom assay plates (Costar 3904, Corning, NY) coated with rat tail collagen (Collaborative Biomedical Products, Bedford, MA). […] Real-time kinetic assays of FRET were performed using a FlexStation 3 microplate reader equipped with monochromators (Molecular Devices, Sunnyvale, CA). Excitation light was delivered at 435/9 nm (455 nm cut-off), and emitted light was detected at 485/15 nm (CFP) or 535/15 nm (YFP)[31],[34]–[36]. […]

human NPY2R [2] = target: T1, human NPY2R; assay: Fura-2 assay of cytosolic [Ca2+] in HEK293 cells transfected with NPY2R; assay type: cell-based; conditions: Fura-2, 96-well, compared with carbachol and ATP

Effect on forskolin-stimulated cAMP production in presence of IBMX (human NPY2R [1]): nearly identical findings
Ability to raise cytosolic [Ca2+] (human NPY2R [2]): weak
Substance: PYY(1–36)
